# Curated experimental data: melting point values

Values as listed in the OPERA 2.9 repository of K. Mansouri.

Melting points are in °C.
"–" marks a cell with nothing listed here.

compound,name,MP (°C)
N#CCC(=O)Nc1nccs1,2-Cyano-N-thiazol-2-yl-acetamide,229
O=C1c2ccccc2C(=O)N1CC1CO1 (stereo not given),"1H-Isoindole-1,3(2H)-dione, 2-(2-oxiranylmethyl)-",99
NC(=O)Cc1nc2ccccc2s1,"2-(1,3-Benzothiazol-2-yl)acetamide",168
Cc1cc(Br)cc2c1NC(=O)C2=O,"5-Bromo-7-methyl-1H-indole-2,3-dione",299
O=Cc1ccc(-c2ccccc2F)o1,5-(2-fluorophenyl)furan-2-carbaldehyde,67
Cc1ccccc1Nc1n[nH]c(=S)s1,–,231
CCOC(=O)C(=O)Cc1ccc2ccccc2n1,Ethyl 2-oxo-3-(quinolin-2-yl)propanoate,131
O=C1C=CC(=O)N1c1cccc([N+](=O)[O-])c1,"1-(3-Nitrophenyl)-1H-pyrrole-2,5-dione",130
COc1ccc(C(=O)NC(=O)CCl)cc1,N-(2-Chloro-acetyl)-4-methoxy-benzamide,161
CC(=O)CC(O)=Nc1ccccc1C(F)(F)F,3-Oxo-N-[2-(trifluoromethyl)phenyl]butanimidic acid,61
Cc1ccccc1-n1c(C)cc(C=O)c1C,"2,5-Dimethyl-1-(2-methylphenyl)-1H-pyrrole-3-carbaldehyde",72
O=C(O)c1cn[nH]c1-c1ccc(F)cc1,3-(4-fluorophenyl)-1H-pyrazole-4-carboxylic acid,303
COc1ccc(Nc2ccccc2C(=O)O)cc1,"Anthranilic acid, N-(4-methoxyphenyl)-",185
Cc1ccc(-c2csc(N)n2)s1,"4-(5-Methylthiophen-2-yl)-1,3-thiazol-2-amine",130
Nc1cc(-c2ccc(Cl)cc2)nn1-c1ccccc1,3-(4-Chlorophenyl)-1-phenyl-1H-pyrazol-5-amine,192
CCCc1ccc(C(=O)CCl)cc1,2-Chloro-1-(4-propyl-phenyl)-ethanone,31
Ic1nccn1C(c1ccccc1)(c1ccccc1)c1ccccc1,2-Iodo-1-trityl-1H-imidazole,170.5
CCCCCCC(O)CCCCCCCCCCC(=O)[O-].CCCCCCC(O)CCCCCCCCCCC(=O)[O-].[Zn+2] (stereo not given),"Octadecanoic acid, 12-hydroxy-, zinc salt (2:1)",150
CCOc1cc(Br)c([N+](=O)[O-])cc1OCC,"1-bromo-4,5-diethoxy-2-nitrobenzene",63
C=CCc1ccc(OCC(=O)O)c(OC)c1,"Acetic acid, [2-methoxy-4-(2-propenyl)phenoxy]-",170
CCCCCCC(O)CCCCCCCCCCC(=O)NCCCCNC(=O)CCCCCCCCCCC(O)CCCCCC (stereo not given),–,138.5
O=C(C1=CNCCC1)c1ccccc1,"Phenyl(1,4,5,6-tetrahydropyridin-3-yl)methanone",91
Nc1cccnc1Oc1ccccc1,2-Phenoxypyridin-3-amine,108
Cc1ccc(-c2nn(-c3ccccc3)cc2C(=O)O)cc1,3-(4-Methylphenyl)-1-phenyl-1H-pyrazole-4-carboxylic acid,230
O=C(O)c1ccccc1Oc1cccc(C(F)(F)F)c1,2-[3-(Trifluoromethyl)phenoxy]benzoic acid,116
Nc1c(C(=O)O)ccc(Cl)c1Cl,"2-amino-3,4-dichlorobenzoic acid",236
CN1CCN(CC(=O)N2c3ccccc3C(=O)Nc3cccnc32)CC1.Cl,Pirenzepine monohydrochloride,271.1
CC(C)Cc1ccc(C(C)C(=O)NO)cc1 (stereo not given),Ibuproxam,123
FC(OC(F)(F)C(F)(OC(F)(F)C(F)(OC(F)(F)C(F)(OC(F)(F)C(F)(OC(F)(F)C(F)(OC(F)(F)C(F)(F)C(F)(F)F)C(F)(F)F)C(F)(F)F)C(F)(F)F)C(F)(F)F)C(F)(F)F)C(F)(F)F (stereo not given),Fluoroether E-6,-72
Nc1nc(-c2ccccc2)c(-c2ccccc2)o1,"2-Amino-4,5-diphenyloxazole",151
ClCc1nnnn1-c1ccccc1,5-(chloromethyl)-1-phenyl-1H-tetrazole,59
Cc1noc(-c2ccccc2N)n1,"2-(3-Methyl-1,2,4-oxadiazol-5-yl)aniline",121
CC(C)CCOc1ccc([C@]2(C)N=C(O)N=C2O)cc1,"4-Methyl-4-[4-(3-methylbutoxy)phenyl]-4H-imidazole-2,5-diol",111
CCN(CC)C(COC(=O)c1ccc(N)cc1)CC(C)C.CS(=O)(=O)O (stereo not given),–,158
Cc1ccc(NC(=O)CC(=N)NO)cc1,3-(Hydroxyamino)-3-imino-N-(4-methylphenyl)propanamide,169
COc1ccc(Cl)cc1CC#N,(5-chloro-2-methoxyphenyl)acetonitrile,53
O=Cc1ccc(-c2cccc(Cl)c2Cl)o1,"5-(2,3-Dichlorophenyl)furan-2-carbaldehyde",96

The 4 lowest values of MP among the entries above:

| compound | name | MP (°C) |
|---|---|---|
| FC(OC(F)(F)C(F)(OC(F)(F)C(F)(OC(F)(F)C(F)(OC(F)(F)C(F)(OC(F)(F)C(F)(OC(F)(F)C(F)(F)C(F)(F)F)C(F)(F)F)C(F)(F)F)C(F)(F)F)C(F)(F)F)C(F)(F)F)C(F)(F)F (stereo not given) | Fluoroether E-6 | -72 |
| CCCc1ccc(C(=O)CCl)cc1 | 2-Chloro-1-(4-propyl-phenyl)-ethanone | 31 |
| COc1ccc(Cl)cc1CC#N | (5-chloro-2-methoxyphenyl)acetonitrile | 53 |
| ClCc1nnnn1-c1ccccc1 | 5-(chloromethyl)-1-phenyl-1H-tetrazole | 59 |

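The numbers are reported measurements, compiled and curated for the OPERA QSAR suite. The files give a single number for a compound and property, which may rest on several reports. Method and conditions are not stated for these values. Where a salt, mixture or single isomer is drawn, the source does not say that exactly this form was tested. Some upstream entries may be estimates or bounds without being marked so.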